The results in this text go back to patent US10098870B2 (JENKEM TECHNOLOGY CO., LTD. (BEIJING), priority 2013, dated 2018).

A short description of data set [1]: Body weight, survival and tolerance of mice bearing H460 (Example 8). The note with it: 15 mg/kg i.v. BIW×3W, mean ± SE.
The nature of data set [2]: Body weight, survival and tolerance of mice bearing Calu-6 (Example 9).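 Further: nude mice bearing Calu-6 tumours, established by implanting 5.0×10^6 cells at the right shoulder.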 The settings on record: 15 mg/kg i.v. BIW×4W, mean ± SE.

For `CC(=O)O[C@H]1C(=O)[C@@]2(C)[C@H]([C@H](OC(=O)c3ccccc3)[C@]3(O)C[C@H](OC(=O)[C@H](O)[C@@H](NC(=O)c4ccccc4)c4ccccc4)C(C)=C1C3(C)C)[C@]1(OC(C)=O)CO[C@@H]1C[C@@H]2O` [Paclitaxel, reference compound], the “Body weight of animal” value in data set [1] (day 26 after inoculation) is given as 18.4 ± 0.3 g; in data set [1] (day 29 after inoculation), 18.7 ± 0.4 g; in data set [2] (day 14 after inoculation) it was 20.7 ± 0.2 g; in data set [2] (day 42 after inoculation), 20.7 ± 0.4 g.
